Drawing on BindingDB's records for doi:10.1021/acs.jmedchem.5b02042 (University of South Florida, 2016), this text covers Kd for one compound.

By UniProt entry, the sequences of proteins in these tests, tags left out.
UniProt P48061, whole entry: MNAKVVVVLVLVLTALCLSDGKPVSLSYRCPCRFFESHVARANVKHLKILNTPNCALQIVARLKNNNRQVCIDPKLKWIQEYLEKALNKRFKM

The target of the experiment is Stromal cell-derived factor 1 (Homo sapiens, UniProt P48061). The experiment is described as follows: Binding affinity to His6-SUMO fusion tagged wild type human [U-15N]CXCL12 expressed in Escherichia coli by 2D 1H-15N HMQC NMR spectroscopy.

In the case of `Cc1ccc(NS(=O)(=O)c2ccc(OCC(=O)O)c(C)c2)cc1C`, the Kd is 4.1 mM.

As a reminder, the Kd is the equilibrium constant for the complex coming apart.
